Read-outs that look alike come from different tables or passages of the source.
Assays:
PARP10 = biological target: T1, PARP10 (Homo sapiens, UniProt Q53GL7); assay: biochemical; type: biochemical; parameters: made in house
T1 sequence (Q53GL7 1-1025): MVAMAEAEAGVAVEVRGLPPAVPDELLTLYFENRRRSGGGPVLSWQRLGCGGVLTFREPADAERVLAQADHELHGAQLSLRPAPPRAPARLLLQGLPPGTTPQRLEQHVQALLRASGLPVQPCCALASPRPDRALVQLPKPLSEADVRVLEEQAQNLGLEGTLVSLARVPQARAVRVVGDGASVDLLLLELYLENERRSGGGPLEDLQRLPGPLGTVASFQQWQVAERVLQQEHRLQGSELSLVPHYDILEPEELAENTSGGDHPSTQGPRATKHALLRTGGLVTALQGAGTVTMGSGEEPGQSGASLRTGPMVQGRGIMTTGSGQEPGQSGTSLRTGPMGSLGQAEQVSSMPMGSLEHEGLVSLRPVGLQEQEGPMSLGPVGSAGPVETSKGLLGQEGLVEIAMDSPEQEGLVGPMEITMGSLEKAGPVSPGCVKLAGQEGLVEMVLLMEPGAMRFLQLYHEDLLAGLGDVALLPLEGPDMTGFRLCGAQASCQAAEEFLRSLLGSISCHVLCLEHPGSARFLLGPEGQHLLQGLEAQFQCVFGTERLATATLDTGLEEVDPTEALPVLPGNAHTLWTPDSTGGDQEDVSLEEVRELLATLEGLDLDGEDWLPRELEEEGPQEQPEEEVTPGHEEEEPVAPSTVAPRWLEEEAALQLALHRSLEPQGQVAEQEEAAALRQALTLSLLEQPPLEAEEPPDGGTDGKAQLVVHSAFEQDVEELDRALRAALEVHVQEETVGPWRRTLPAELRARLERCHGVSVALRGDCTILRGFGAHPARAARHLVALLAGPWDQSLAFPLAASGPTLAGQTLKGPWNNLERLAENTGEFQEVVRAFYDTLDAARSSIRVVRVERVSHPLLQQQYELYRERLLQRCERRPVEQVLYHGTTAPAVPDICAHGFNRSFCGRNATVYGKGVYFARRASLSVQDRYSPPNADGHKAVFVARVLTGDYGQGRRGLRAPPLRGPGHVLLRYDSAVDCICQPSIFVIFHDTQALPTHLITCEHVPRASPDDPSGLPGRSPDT

PARP15 = biological target: T2, PARP15 (Homo sapiens, UniProt Q460N3); assay: biochemical; type: biochemical; parameters: made in house
T2 sequence (Q460N3 1-678): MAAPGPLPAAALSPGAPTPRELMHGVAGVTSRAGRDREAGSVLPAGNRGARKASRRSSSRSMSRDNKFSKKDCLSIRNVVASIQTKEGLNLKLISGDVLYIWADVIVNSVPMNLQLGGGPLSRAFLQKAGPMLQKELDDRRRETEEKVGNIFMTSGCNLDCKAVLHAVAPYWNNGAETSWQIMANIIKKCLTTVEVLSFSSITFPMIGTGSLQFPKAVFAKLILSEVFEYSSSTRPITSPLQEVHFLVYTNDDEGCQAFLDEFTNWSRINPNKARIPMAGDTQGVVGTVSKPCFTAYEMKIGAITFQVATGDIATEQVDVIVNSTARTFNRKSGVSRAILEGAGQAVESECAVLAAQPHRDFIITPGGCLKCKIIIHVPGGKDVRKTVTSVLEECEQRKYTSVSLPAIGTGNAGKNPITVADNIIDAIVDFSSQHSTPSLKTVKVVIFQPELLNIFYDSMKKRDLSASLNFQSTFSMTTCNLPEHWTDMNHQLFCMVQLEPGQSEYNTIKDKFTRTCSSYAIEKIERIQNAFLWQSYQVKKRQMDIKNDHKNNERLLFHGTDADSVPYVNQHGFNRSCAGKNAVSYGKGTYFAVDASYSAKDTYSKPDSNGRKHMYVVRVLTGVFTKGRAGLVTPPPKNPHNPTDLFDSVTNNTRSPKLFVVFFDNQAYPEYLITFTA

[1] = standard assay (Tables 1-3), * value limited by the protein concentration used, > less than 50% inhibition, ≫ no inhibition at the concentration
[2] = standard assay (Tables 1-3), * value limited by the protein concentration used, > less than 50% inhibition, ≫ no inhibition at the concentration, read-out: PARP15 IC50

SMILES | IC50 (PARP10; [1]) [µM] | IC50 (PARP15; [2]) [µM] | also measured
Clc1ccc2c(c1)sc1nncn12 [Compound 7] | > 10 |  | 
Oc1cccc2c1sc1nncn12 [Compound 17, [1,2,4]Triazolo[3,4-b][1,3]benzothiazol-8-ol] | > 10 |  | 
CSc1nnc2sc3cc(C)ccc3n12 [Compound 22, 7-Methyl-3-(methylthio)[1,2,4]triazolo[3,4-b][1,3]benzothiazole] |  | > 10 | 
Cc1ccc2c(c1)sc1nnc(SCc3ccc(Cl)cc3)n12 [Compound 23, 3-[(4-Chlorobenzyl)thio]-7-methyl[1,2,4]triazolo[3,4-b][1,3]benzothiazole] | > 10 | > 10 | 
Cc1ccc2c(c1)sc1nnc(/N=C\c3ccc(Cl)cc3)n12 [Compound 24, N-[(1Z)-(4-Chlorophenyl)methylene]-7-methyl[1,2,4]triazolo[3,4-b][1,3]benzothiazol-3-amine] |  |  | IC50 (PARP10): > 10 µM; IC50 (PARP15): 7.9 µM
Cc1ccc2c(c1)sc1nnc(NCc3ccc(Cl)cc3)n12 [Compound 25, N-(4-Chlorobenzyl)-7-methyl[1,2,4]triazolo[3,4-b][1,3]benzothiazol-3-amine] |  | > 10 | 
